Curated experimental data: melting point values

From the experimental data distributed with OPERA 2.9.

Melting points are in °C. "via" names the databases from which the curators took the value.

COc1ccc(C(=O)Nc2ccccc2)cc1[N+](=O)[O-] [4-Methoxy-3-nitro-N-phenylbenzamide] is reported with MP 161 °C (via eChemPortal). Listed for O=C(O)c1cccc2[nH]ncc12 [1H-Indazole-4-carboxylic acid]: MP 286 °C (via OCHEM). c1cc(-c2nnco2)ccn1 [4-(1,3,4-Oxadiazol-2-yl)pyridine] has MP 120 °C (via OCHEM). Listed for Nn1cnc2c(cnn2-c2ccccc2)c1=O: MP 234 °C (via OCHEM). For CCOC(=O)C(C[C@]1(CC)CCCN2CCc3c([nH]c4ccccc34)[C@@H]21)=NO the data give MP 168 °C (via eChemPortal). For CCOc1ccc(-c2csc(N)n2)cc1 [4-(4-Ethoxyphenyl)-1,3-thiazol-2-amine] the data give MP 249 °C (via OCHEM). The entry for Oc1cncc(F)c1 [3-Fluoro-5-hydroxypyridine] lists MP 162.5 °C (via OCHEM).

Cc1cc([N+](=O)[O-])ccc1NC(=O)CCl [2-chloro-N-(2-methyl-4-nitrophenyl)acetamide] is reported with MP 119 °C (via OCHEM). C=CCn1c(=S)[nH]c2ccccc21 [1-allyl-1H-benzimidazole-2-thiol] is reported with MP 110 °C (via OCHEM). Listed for CC(C)c1cc(=O)oc2cc(O)ccc12 [7-Hydroxy-4-isopropyl-chromen-2-one]: MP 78 °C (via OCHEM). O=C1CCOc2ccc(Br)cc21 [6-bromochroman-4-one] has MP 74 °C (via OCHEM). For O=C(CC(=O)NCc1ccccc1)NCc1ccccc1 [n,n'-dibenzylmalonamide] the data give MP 120 °C (via OCHEM). S=c1ccc(Cl)n[nH]1 [6-chloropyridazine-3-thiol] is reported with MP 149 °C (via OCHEM). The entry for CNS(=O)(=O)c1ccc(Cl)c(C(=O)O)c1 [Benzoic acid, 2-chloro-5-[(methylamino)sulfonyl]-] lists MP 172 °C (via OCHEM).

COc1ccc(-c2nn(-c3ccccc3)cc2C=O)cc1 [3-(4-Methoxyphenyl)-1-phenyl-1H-pyrazole-4-carbaldehyde] is reported with MP 136 °C (via OCHEM). For OC(CCl)(CCl)c1ccc(F)cc1F the data give MP 57 °C (via eChemPortal). The entry for CC1CCc2[nH]c3ccc(C(=O)O)cc3c2C1 (stereo unspecified) [6-Methyl-6,7,8,9-tetrahydro-5H-carbazole-3-carboxylic acid] lists MP 219 °C (via OCHEM). For Cc1ccc(S(=O)(=O)NCCC(=O)O)cc1 [3-(Toluene-4-sulfonylamino)-propionic acid] the data give MP 149 °C (via OCHEM). The entry for O=C(O)c1c(F)ccc(S(=O)(=O)Cl)c1F [3-Chlorosulfonyl-2,6-difluoro-benzoic acid] lists MP 109 °C (via OCHEM). Cn1c(-c2ccc(Cl)cc2)n[nH]c1=S [4H-1,2,4-Triazole-3-thiol, 5-(p-chlorophenyl)-4-methyl-] has MP 114 °C (via OCHEM). CCNC(=O)CCCl [3-chloro-N-ethylpropanamide] has MP 65 °C (via OCHEM).

For COc1cccc(-n2cc[nH]c2=S)c1 [1-(3-methoxyphenyl)-1H-imidazole-2-thiol] the data give MP 150 °C (via OCHEM). The entry for CCOC(=O)c1ccc(S(=O)(=O)Cl)cc1 [4-Chlorosulfonyl-benzoic acid ethyl ester] lists MP 50 °C (via OCHEM). The entry for NC(=O)c1cnc(Cl)c(Cl)c1 [5,6-dichloropyridine-3-carboxamide] lists MP 205 °C (via OCHEM). Listed for COC(=O)C(=O)CC(=O)c1ccc(Cl)cc1Cl [methyl 4-(2,4-dichlorophenyl)-2,4-dioxobutanoate]: MP 119 °C (via OCHEM). For O=C(CC(=O)Nc1cc(Cl)ccc1Cl)Nc1cc(Cl)ccc1Cl [N~1~,N~3~-Bis(2,5-dichlorophenyl)propanediamide] the data give MP 227 °C (via OCHEM). Cc1cn2c(CO)c(C)nc2s1 [(2,6-Dimethylimidazo[2,1-b][1,3]thiazol-5-yl)methanol] has MP 150 °C (via OCHEM). Nc1cc(C(=O)Nc2ccccc2)ccc1Cl [3-Amino-4-chloro-N-phenylbenzamide] is reported with MP 200 °C (via OCHEM).

Listed for COc1ccc(-c2noc(CCl)n2)cc1OC [5-(chloromethyl)-3-(3,4-dimethoxyphenyl)-1,2,4-oxadiazole]: MP 102 °C (via OCHEM). O=C(O)Cn1nnc(-c2ccccc2)n1 [(5-Phenyl-2H-tetrazol-2-yl)acetic acid] has MP 181 °C (via OCHEM). The entry for CCOC(=O)Nc1ccc2nn(C3CCCC3)nc2c1 [Ethyl (2-cyclopentyl-2H-benzotriazol-5-yl)carbamate] lists MP 122 °C (via OCHEM). For COC(=O)c1ccc(Br)c(C)c1 [Methyl 4-bromo-3-methylbenzoate] the data give MP 41.5 °C (via OCHEM). The entry for CCN(CC)c1ccc2c(C#N)c(-c3nc4ccccc4s3)c(=O)oc2c1 lists MP 255.8 °C (via eChemPortal). The entry for CCOc1ccc(OCC(=O)O)cc1 [4-Ethoxyphenoxyacetic acid] lists MP 128 °C (via OCHEM). Listed for O=C(O)c1cccc(N2CCCC2=O)c1 [3-(2-oxopyrrolidin-1-yl)benzoic acid]: MP 202 °C (via OCHEM).

FC(F)(F)C(F)(F)C(F)(F)C(F)(F)C(F)(F)C(F)(F)c1ccc(-c2cccs2)s1 [5-(Tridecafluorohexyl)-2,2'-bithiophene] has MP 52.5 °C (via ChemicalBook).

The last 6 entries again:

CCOC(=O)Nc1ccc2nn(C3CCCC3)nc2c1 [Ethyl (2-cyclopentyl-2H-benzotriazol-5-yl)carbamate] is reported with MP 122 °C (via OCHEM).
COC(=O)c1ccc(Br)c(C)c1 [Methyl 4-bromo-3-methylbenzoate] is reported with MP 41.5 °C (via OCHEM).
CCN(CC)c1ccc2c(C#N)c(-c3nc4ccccc4s3)c(=O)oc2c1 is reported with MP 255.8 °C (via eChemPortal).
CCOc1ccc(OCC(=O)O)cc1 [4-Ethoxyphenoxyacetic acid] is reported with MP 128 °C (via OCHEM).
O=C(O)c1cccc(N2CCCC2=O)c1 [3-(2-oxopyrrolidin-1-yl)benzoic acid] is reported with MP 202 °C (via OCHEM).
FC(F)(F)C(F)(F)C(F)(F)C(F)(F)C(F)(F)C(F)(F)c1ccc(-c2cccs2)s1 [5-(Tridecafluorohexyl)-2,2'-bithiophene] is reported with MP 52.5 °C (via ChemicalBook).

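The numbers are reported measurements, compiled and curated for the OPERA QSAR suite. A listed value is a point estimate from one report or more. Conditions of the individual experiments are not part of the data. The measured form (salt, isomer or mixture) is not always the one drawn. Some upstream entries may be estimates or bounds without being marked so.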